Results: patent US12084479B2, “Modified antimicrobial peptide derived from an arginine-rich domain” (priority 2016, dated 2024)

System: human red blood cells (hRBCs)
Experiment: Hemolytic activity
Format: cell-based
Conditions: 8.9 mg/L, 37° C., one hour
Experimental: In the hemolysis assay, human RBCs were incubated with serially-diluted doses (0 to 460 mg/L) of D-HBcARD, L-HBcARD, or melittin, at 37° C. for one hour.
The hemolytic activities of peptides were determined by hemolysis against human red blood cells (hRBCs). Human blood was obtained in EDTA-containing tube and was centrifuged at 450 g for 10 min. The pellet was washed three times with PBS buffer, and a solution of 10% hRBCs was prepared. hRBCs solution was mixed with serial dilutions of peptides in PBS buffer, and the reaction mixtures were incubated for 1 h at 37° C. After centrifugation at 450 g for 10 min, the percentage of hemolysis was determined by measuring the absorbance at the wavelength of 405 nm of the supernatant. Blank and 100% hemolysis were determined in PBS buffer and in the presence of 1% Triton X-100, respectively.

CC[C@H](C)[C@H](NC(=O)CN)C(=O)NCC(=O)N[C@@H](C)C(=O)N[C@H](C(=O)N[C@@H](CC(C)C)C(=O)N[C@@H](CCCCN)C(=O)N[C@H](C(=O)N[C@@H](CC(C)C)C(=O)N[C@H](C(=O)N[C@H](C(=O)NCC(=O)N[C@@H](CC(C)C)C(=O)N1CCC[C@H]1C(=O)N[C@@H](C)C(=O)N[C@@H](CC(C)C)C(=O)N[C@H](C(=O)N[C@@H](CO)C(=O)N[C@@H](Cc1c[nH]c2ccccc12)C(=O)N[C@H](C(=O)N[C@@H](CCCCN)C(=O)N[C@@H](CCCNC(=N)N)C(=O)N[C@@H](CCCCN)C(=O)N[C@@H](CCCNC(=N)N)C(=O)N[C@@H](CCC(N)=O)C(=O)N[C@@H](CCC(N)=O)C(N)=O)[C@@H](C)CC)[C@@H](C)CC)[C@@H](C)O)[C@@H](C)O)C(C)C)C(C)C [melittin, reference compound]
hemolysis (percentage of Triton X-100-induced hemolysis): 100%
